# Apparent affinities of Ab-14 variants for a coronavirus HR2 peptide

Antigen: PDVDLGDISGINAS, a 14-residue peptide of the SARS-CoV-2 spike HR2 region.

The variants keep the heavy chain, the linker and the frameworks of Ab-14 (scFv order VH, a 15-residue (Gly4Ser)3 linker, VL).
VH: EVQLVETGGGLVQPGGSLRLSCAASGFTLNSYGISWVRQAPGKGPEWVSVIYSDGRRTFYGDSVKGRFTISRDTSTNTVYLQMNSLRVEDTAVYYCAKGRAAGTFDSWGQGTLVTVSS
VL: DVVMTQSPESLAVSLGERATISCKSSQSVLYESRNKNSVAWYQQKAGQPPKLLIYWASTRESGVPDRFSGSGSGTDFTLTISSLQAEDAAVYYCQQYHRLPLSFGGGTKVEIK

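Phage display of a naive human antibody library on the peptide gave the parent. Designed CDR sequences, proposed from the first random library and measured here. Their group label is 14L_En_Gibbs (En: ensemble of fine-tuned language models; Gibbs: Gibbs sampling). The assay is AlphaSeq: two haploid yeast populations carry antibody and antigen on their surface. Pairs that bind mate more often; barcode pairs of the diploids are counted by sequencing. The ratio of observed to expected reads was calibrated, replicate by replicate, on BCL2-family standards whose Kd was known from biolayer interferometry. The assay was run in six technical replicates.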

The parent's light chain CDRs are KSSQSVLYESRNKNSVA, WASTRES, QQYHRLPLS; each variant's own CDRs replace them letter for letter. Values are log10 of the apparent Kd in nM; lower means stronger binding. A pair that was not seen in that replicate is written "nd"; this usually means weak binding, but a binder can also be missed. The authors' rule: three or more of the six replicates give a measured affinity, fewer mean a poor binder.

CDR-L1	CDR-L2	CDR-L3	log10 Kd, replicates	control signals
MVNMHDEGFKGHKDNIA	NAATKEG	QHYGRLPLS	nd 1.43 1.14 1.45 0.93 1.25	0 of 18
KLSWDDMSHFNTRSAVA	DMTMRAW	QQYNRLPLD	1.06 0.68 0.66 0.82 0.74 0.98	2 of 18 (2.31)
TLMFDGEQEDSENKAIA	DAIHKGV	QQYNRLPLT	2.18 0.59 1.02 1.10 1.35 1.43	0 of 18
KLPHLSFVHDREKNNVA	DLNRKAA	QQYDRLPLA	0.71 0.21 0.26 0.16 0.12 0.29	0 of 18
SVRHPFQGDNGRKASIA	NATIRDH	QQYFRLPLF	0.60 0.54 0.07 0.24 0.26 0.35	3 of 18 (2.94)
MFLEEDFQQLAAHSAVA	NAEEAMT	QHYFRLPLV	1.37 1.99 1.56 1.67 1.62 1.56	1 of 18 (2.45)
KLNDGFQQYERNNSSVA	DAINSEQ	QQYARLPLL	1.02 0.99 1.04 0.88 0.90 0.93	1 of 18 (3.27)
QITNQTAGISNGIASIA	EETNLTD	QQYNHLPLS	2.23 2.08 2.12 2.33 2.85 2.53	1 of 18 (3.24)
KLQWYPLEIRDTGSAVA	EAATRYN	QQYMRLPLM	0.25 0.24 -0.13 -0.15 -0.19 0.10	0 of 18
RISMNFTWPGNARQNVA	EIQKAID	QQYAHLPLS	1.86 1.57 1.60 1.18 1.53 1.66	0 of 18
TLGNQPTEMRDNKHAVA	DDEQRDR	QQYMRLPLS	0.45 0.33 0.81 -0.02 0.39 0.23	0 of 18
KLAMYLSMWADTYHGVA	DANHKAS	QQYNRLPLS	0.63 0.91 0.99 0.58 0.83 0.74	0 of 18
SLRHYFQGENGMRGSVA	NATIRDQ	QQYFRLPLF	0.38 0.28 0.15 0.24 0.12 0.31	2 of 18 (3.04)
YAQMPFHEVGKDEQNIA	NATIRES	QQYFRLPIL	0.27 0.27 0.19 0.20 0.61 0.75	2 of 18 (1.43)
QYSMNLTIYDQEQGNVA	HGEMRTE	QQYHKLPLS	nd nd 1.26 1.40 nd nd	0 of 18
KFMGSDEYQMQEQGNVA	QTEQKCK	QQYFRLPLT	0.15 0.07 0.30 0.20 0.30 0.42	0 of 18
KLWMIFPEGQQELSAVA	NAGTLVQ	QQYNVLPLS	nd 2.85 1.73 2.27 2.24 2.36	1 of 18 (4.16)
GLSNQETEQIAHANSIA	DRDERDV	QQYAHLPLI	0.94 0.80 0.43 0.49 0.77 0.35	1 of 18 (2.61)
MLDNCQAGYYQKNNNIA	EMNMRRY	QQYGRLPLS	2.09 1.87 1.79 2.73 1.64 1.81	2 of 18 (2.70)
KLMMFMQEIGCMKNNIA	NLEEGAR	QQYAQLPLV	nd nd nd nd nd nd	1 of 18 (0.78)
NLGQKMSLETEQRNSIA	DSTVREY	QQYSRIPLI	0.54 0.32 0.75 1.35 0.71 1.07	1 of 18 (1.95)
NMNVGANFGKEQEQAIA	DVEDRES	QQYARLPLT	1.70 1.39 1.21 1.25 1.52 1.24	0 of 18
HFAQTRQEDIQNKNSVA	EGSVVIS	QQYSKLPLS	2.84 1.19 0.97 1.48 2.65 1.30	0 of 18
QIQDFKENDAEWGDSVA	ETSARTA	QQYHRLPLA	nd 2.51 1.28 1.35 1.93 1.17	0 of 18
KFDFQMPELNYQDNSIA	GMTVSIE	QQYWRLPLT	nd nd nd nd nd nd	0 of 18
QIMEEQSMRTEGTWNIA	QGEQKVH	QQYFRLPLA	nd 1.49 nd 1.78 2.47 nd	0 of 18
TIDQYTSYGNGENWAIA	DVSIKDY	QQYARLPLL	2.48 0.93 1.87 0.96 0.85 1.21	0 of 18
NITGMVEEIGTTTKNIA	EGEFRCG	QQYSRLPLS	0.95 0.76 0.96 1.06 0.80 0.97	2 of 18 (2.03)
KMHLTHEAQPRNHNNIA	EGNLRPT	QQYFRLPLM	0.15 -0.03 0.11 -0.03 0.17 0.28	0 of 18
QINMEMYHDLDDAQNVA	DAMTEIK	QQYNRLPLS	nd nd 1.39 nd 1.78 1.60	0 of 18
MFSTNLHDMGANKHSVA	DMAEVTG	QDYHRLPLS	nd nd nd nd nd nd	0 of 18
LLSGMVEEQLTRQNNIA	EGEFRDA	QQYNRLPLS	0.52 0.95 0.29 0.48 0.48 0.77	0 of 18
MIAGSLESQEANQAPVA	SATCREP	QQYSRLPLM	0.67 1.00 0.76 0.97 0.34 0.98	0 of 18
KLWGSPLEGQSELQAVA	QAEVLRQ	QQYNMLPLS	1.13 1.38 1.23 0.60 1.45 1.16	0 of 18
QLEVFNLQAGSTQAAIA	DASHSTP	QQYARLPLM	0.50 0.58 0.37 0.03 0.25 0.14	2 of 18 (2.46)
HIQDDAGGLKEQFDSVA	STEERSY	QQYSRLPLS	0.86 0.94 0.98 0.75 1.04 1.03	1 of 18 (2.96)
NVGGEDPGQWHMKDSIA	GSSLRAE	QQYWRLPLL	0.30 0.27 0.31 0.16 0.20 0.44	0 of 18
NLNDSDMYAQIMTDNIA	QETQRNE	QQYAKLPLS	1.68 nd 2.43 2.37 nd 3.39	2 of 18 (3.19)
QMFFQLFEQGNRSNPIA	HESMRET	QQYAYLPLT	nd nd 2.74 nd 2.49 nd	0 of 18
AMREDFYHGQVEMSAIA	DGEHLNM	QQYSHLPLS	0.07 1.74 1.02 0.30 -0.22 0.32	0 of 18
GILSQMDGISAYKENIA	NEAERLR	QQYQRLPLT	1.07 0.66 1.04 0.71 0.81 1.11	0 of 18
QLSLMENHMGDRMHNVA	DTNQAKT	QDYFRLPLM	1.05 1.41 0.78 1.10 2.15 1.42	1 of 18 (2.39)
IMSEGQERDASRLNNIA	DHYTRAT	QQYARLPLH	0.24 -0.03 0.02 -0.09 -0.14 0.01	2 of 18 (2.40)
KMETYSQDNRLTISAIA	EAQTIYQ	QQYGRLPLS	nd nd nd nd nd nd	0 of 18
KITHQMRTGMAQRNAMA	NGAMRNE	QFYSRLPLF	1.32 0.34 0.23 0.03 0.70 1.11	0 of 18

The range of this assay differs from that of the first round, and the authors advise against merging the two. Nonspecific signal, from three strains lacking the peptide, appeared in 4% of pairings of all light chain designs, centred on 2.64 (5% of these signals below 1.59); values are not corrected for it. For each scFv, signals with the empty controls are counted beside the result, with their mean in brackets.

From the AlphaSeq antibody data of Li et al. 2023 (doi:10.1038/s41467-023-39022-2), copy in the FLAb collection.